Source: patent US9422233B2 (priority 2011, dated 2016)

Test system: female CD-1 mice
Assay: Mouse ear vesicant model (MEVM), edema of ear punches
Conditions: test compound 1 to 2 micromoles topical, six hours after exposure
[1] = CEES is the inflammatory inducer

Row | SMILES | percent suppression of inflammatory edema weight gain in ear punches [1] | percent suppression of inflammatory edema weight gain in ear punches (TPA is the initiator)
1 | COCCOC(=O)N(O)Cc1ccc(O)c(OC)c1 | 80% | 
2 | CCCCCCCCOC(=O)N(O)Cc1ccc(O)c(OC)c1 [Compound 4c, Octyl-N-hydroxy(4-hydroxy-3-methoxybenzyl)carbamate] | 69% | 
3 | COc1cc(CN(O)C(=O)Oc2ccccc2)ccc1O [Compound 4g, Phenyl-N-hydroxy(4-hydroxy-3-methoxybenzyl)carbamate] | 43% | 
4 | CCCCCCCC/C=C\CCCCCCCC(=O)N(O)Cc1ccc(O)c(OC)c1 [Compound 5a, (9Z)—N-Hydroxy-N-[(4-hydroxy-3-methoxyphenyl)methyl]-9-Octadecenamide] |  | 64%
5 | CCCCCCCN(O)C(=O)Cc1ccc(O)c(OC)c1 [Compound 10a, N-heptyl-N-hydroxy-2-(4-hydroxy-3-methoxyphenyl)acetamide] |  | 50%
6 | CCCCCCCCN(O)C(=O)Cc1ccc(O)c(OC)c1 [Compound 10b, N-octyl-N-hydroxy-2-(4-hydroxy-3-methoxyphenyl)acetamide] |  | 49%
